# Cyclic peptide permeability, from CycPeptMPDB

Values of Townsend et al. 2020, doi:10.26434/chemrxiv.13335941.v1, as listed in CycPeptMPDB.

PAMPA is the parallel artificial membrane permeability assay, which has no cells and reads passive diffusion.
Permeability is in 10^-6 cm/s, converted from the database's log10 values; higher is more permeable.

SMILES	PAMPA (10^-6 cm/s)
CC(C)C[C@@H]1C(=O)N[C@H](CC(C)C)C(=O)N2CCC[C@@H]2C(=O)N(C)[C@@H](CC(C)C)C(=O)N[C@@H](Cc2ccccc2)C(=O)N[C@@H](Cc2ccccc2)CC(=O)N1C	7.8
CC(C)C[C@@H]1NC(=O)[C@@H](CC(C)C)NC(=O)[C@@H](C)NC(=O)[C@H]2CCCN2C(=O)[C@H](Cc2ccccc2)NC(=O)CN(Cc2ccccc2)C(=O)[C@@H]2CCCN2C1=O	0.25
CCCN1CC(=O)N[C@@H](CC(C)C)C(=O)N(C)[C@H](CC(C)C)C(=O)N2CCC[C@H]2C(=O)N(C)[C@@H](CC(C)C)C(=O)N[C@@H](Cc2ccccc2)C(=O)N2CCC[C@@H]2C1=O	7.6
CC(C)C[C@@H]1NC(=O)[C@H](C)N(C)C(=O)[C@@H]2CCCN2C(=O)[C@H](Cc2ccccc2)NC(=O)[C@H](CC(C)C)N(C)C(=O)[C@@H]2CCCN2C(=O)[C@@H](CC(C)C)NC1=O	4.7
CCCN1CC(=O)N[C@@H](CC(C)C)C(=O)N[C@@H](CC(C)C)C(=O)N2CCC[C@@H]2C(=O)N(C)[C@@H](CC(C)C)C(=O)N[C@@H](Cc2ccccc2)C1=O	6.9
CC(C)C[C@@H]1C(=O)N(C)[C@@H](CC(C)C)C(=O)N2CCC[C@@H]2C(=O)N(C)[C@H](CC(C)C)C(=O)N[C@@H](Cc2ccccc2)C(=O)N2CCC[C@H]2C(=O)N[C@@H](C)C(=O)N1C	2.6
CC(C)C[C@@H]1NC(=O)[C@@H](C)NC(=O)[C@@H]2CCCN2C(=O)[C@H](Cc2ccccc2)NC(=O)[C@@H](CC(C)C)NC(=O)[C@@H]2CCCN2C(=O)[C@@H](CC(C)C)NC1=O	0.22
CC(C)C[C@H]1NC(=O)C[C@H](Cc2ccccc2)NC(=O)[C@H](Cc2ccccc2)NC(=O)[C@@H](CC(C)C)NC(=O)[C@@H]2CCCN2C(=O)[C@@H](CC(C)C)NC1=O	1.5
CC(C)C[C@@H]1C(=O)N[C@@H](Cc2ccccc2)C(=O)N2CCC[C@H]2C(=O)N(C)[C@H](C)C(=O)N[C@H](CC(C)C)C(=O)N[C@H](CC(C)C)C(=O)N2CCC[C@@H]2C(=O)N1C	3.8
CC(C)C[C@@H]1NC(=O)[C@H](C)NC(=O)[C@H](Cc2ccccc2)NC(=O)[C@@H](CC(C)C)NC(=O)[C@H]2CCCN2C(=O)C[C@H](Cc2ccccc2)NC1=O	3.2
CC(C)C[C@@H]1NC(=O)[C@H](CC(C)C)N(C)C(=O)C[C@H](Cc2ccccc2)NC(=O)[C@@H]2CCCN2C(=O)[C@H](Cc2ccccc2)NC(=O)[C@H](CC(C)C)N(C)C(=O)[C@H]2CCCN2C1=O	4.3
CC(C)C[C@H]1NC(=O)[C@H](C)N(C)C(=O)[C@@H]2CCCN2C(=O)[C@H](Cc2ccccc2)NC(=O)CN(Cc2ccccc2)C(=O)[C@@H]2CCCN2C(=O)CN(Cc2ccccc2)C1=O	0.52

The first 2 entries again:

SMILES	PAMPA (10^-6 cm/s)
CC(C)C[C@@H]1C(=O)N[C@H](CC(C)C)C(=O)N2CCC[C@@H]2C(=O)N(C)[C@@H](CC(C)C)C(=O)N[C@@H](Cc2ccccc2)C(=O)N[C@@H](Cc2ccccc2)CC(=O)N1C	7.8
CC(C)C[C@@H]1NC(=O)[C@@H](CC(C)C)NC(=O)[C@@H](C)NC(=O)[C@H]2CCCN2C(=O)[C@H](Cc2ccccc2)NC(=O)CN(Cc2ccccc2)C(=O)[C@@H]2CCCN2C1=O	0.25

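Lipid, pH, incubation time, direction and concentration are not recorded in the data file. The list need not hold all peptides of the study. Peptides that the database sets to -10, its floor, are left out.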